Key:
LCL cells from Group 3 = experiment: MNNG dose response, cell survival by trypan blue staining
[1] = test system: MMR pathway in Group 1 and Group 3 LCLs; experiment: Risk classification score combining MLH1, MSH2 and ATR FVAs (flow cytometry) after mismatch-inducing agent

CN(N=O)C(=N)N[N+](=O)[O-]
MNNG concentration that did not significantly increase cell death compared to untreated control (LCL cells from Group 3; 24 hours, Group 3 LCLs, n=3): ≤ 50 µM | MNNG concentration showing significant toxicity (survival counts, trypan blue) (LCL cells from Group 3; LCL cells from Group 3, n=3): > 50 µM | Optimal concentration for MMR induction [1]: about 50 μM

Reference: US11981959B2, “Methods and compositions for diagnosing and treating, germline mismatch repair deficiencies, lynch syndrome and assessing germline risks of cancer” (dated 2024)
